# Screening data as filed in PubChem.
# CFTR F508del cor – CFTR F508del correction in bronchial cells. CFBE cells, YFP halide quenching; stimulated with forskolin plus potentiator P3; % fluorescence drop versus neutral controls. activity (quench increase), % at 7.58 µM. hit rate 0.36% among 350,000. AID 720511;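 active = mean added fluorescence quench of at least 8% versus neutral control, with both replicates also reaching 8%; inconclusive = only one of the mean or replicate conditions met; inactive = mean below 8% and not both replicates reaching 8%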;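 also: cells transiently co-express mutant CFTR-F508del with the halide-sensitive YFP; corrector assay measuring rescue of mutant channel to the surface after 24 h compound exposure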
# EWS-Fli inh – inhibitors of EWS/Fli oncoprotein transcriptional activity | A673 NR0B1-luciferase reporter, viability-normalised | inhibition, % at 12.6 µM | hit rate 0.67% among 350,000 | AID 651661;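 active = mean inhibition of at least 50% after viability correction, with every replicate also passing that limit; inconclusive = mean reaches 50% but only one of two replicates passes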;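 also: firefly luciferase signal divided by Alamar Blue viability fluorescence both relative to DMSO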
# Yeast UUG start – yeast start codon fidelity modulation; AID 602363; activity score, % at 18.7 µM; S. cerevisiae UUG-firefly luciferase reporter, luminescence/redox ratio; 0.13% of 350,000 active;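 active means replicate mean at a twofold rise or more, about +100% in these data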;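 further: firefly luciferase made from a UUG start codon reports start codon fidelity; reporter light over untreated wells divided by growth signal over untreated wells; some hits fall short of that in this replicate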
# PglD inh – PglD (C. jejuni) enzyme inhibition | purified PglD enzyme, DTNB colorimetric CoA detection | AID 602405 | hit rate 0.098% among 360,000 | inhibition, % at 12.5 µM; in the data active = inhibition above about 16%, passing the limit was not always enough; inconclusive = no clear call, values can overlap the other calls
# miR122 inh – blocks miR-122 activity in Huh7 sensor cells; Huh7 miR-122 Renilla luciferase sensor, 48 h; neutral wells = 0, positive control = 100; activation (reporter increase), % at 12.5 µM; hit rate 0.3% among 340,000;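 active = mean replicate activation score at least 90 and every replicate individually at or above 90; inconclusive = only one of the two criteria met; inactive = neither criterion met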;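 also: higher luciferase means less miR-122 activity so hits act as miR-122 inhibitors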
# LGR2 inh – inhibitors of bursicon-induced Drosophila LGR2 receptor cAMP signaling. inhibition, % at 9.99 µM. hit rate 0.35% among 380,000. AID 720647. HEK293 LGR2, CRE-luciferase, bursicon-stimulated, 4 h;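 active = drop in luminescence signal, shown as inhibition above about 50% in the replicate tests, limit read from the data, passing the limit was not always enough; inconclusive = probably only some replicates passing the limit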;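 also: agonist challenge used bursicon conditioned medium at about half maximal strength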
# An asterisk follows results filed as active; ? = inconclusive; / = not tested or not shown; [ ] = another dose, or the depositor's remark. The list is not random: actives were taken first. Their share in the collection is about 1.3%.
# Sequence of screens: CFTR F508del cor | EWS-Fli inh | Yeast UUG start | PglD inh | miR122 inh | LGR2 inh
> CC(=O)NCCc1ccc(C(=O)Cn2cnc3ccccc3c2=O)cc1
 : -2 | -41 | -14 | 2 | -2 | -7
> CC1=Nc2cc(C(=O)NCC3CCCO3)ccc2Sc2ccc(C)cc21 (configuration not stated)
 : 10* | 40 | -20 | 10 | / | 5
> COc1ccc(-c2ccnc(-c3ccc(O)cc3)n2)cc1
 : 11* | 29 | / | / | / | -25
> Cc1cccc(N(C(=O)CNC(=O)c2ccco2)C(C(=O)NC2CCCCC2)c2cccnc2)c1 (configuration not stated)
 : 0 | 2 | -19 | -5 | / | 20
> O=C(NC1CCCCC1)C(c1cccnc1)N(C(=O)CCl)c1cccc(Cl)c1 (configuration not stated)
 : 2 | 58* | -1 | 7 | -3 | -11
> CC(=O)Nc1ccc(NC(=O)COc2cccc3c2OC(C)(C)C3)cc1
 : 11* | 6 | -9 | -3 | -1 | 14
> COC(=O)c1ccc(NC(=O)COc2cccc3c2OC(C)(C)C3)cc1
 : -3 | 4 | 10 | 3 | 2 | 3
> CC(=O)Nc1c(O)nc(SCC(=O)N2CCCCC2)[nH]c1=O
 : -1 | -2 | -18 | 0 | -3 | -16
> CCOC(=O)c1[nH]c(C)c(/C(O)=C2\C(=O)C(=O)N(CCCN3CCOCC3)C2c2cccs2)c1C (configuration not stated)
 : 15* | 33 | / | / | / | -27
> Cc1noc(C)c1C(=O)N(C)C[C@H]1OCc2ccccc2-c2c(n(C)c3ccccc23)C(=O)N([C@@H](C)CO)C[C@@H]1C
 : 2 | 2 | / | 16 | / | -8
> CCn1nc(C)cc1-c1nnc(Sc2ncc([N+](=O)[O-])s2)n1C
 : -9 | 69* | -20 | 7 | -45 | -2
> CC(C)Cc1nnc(NC(=O)Cc2ccccc2[N+](=O)[O-])s1
 : -1 | 13 | 1 | -5 | 126* | -11
> O=C(/C=C/c1ccc2c(c1)OCO2)NCCSCc1cccc(Cl)c1
 : / | / | -6 | -5 | 115* | 2
> O=C(/C=C/c1ccc2c(c1)OCO2)NCCSCc1ccc(Cl)cc1Cl
 : / | / | 0 | 2 | -1 | 5
> CC(=O)N(C)C[C@@H]1Oc2cc(C#Cc3cccc(F)c3)ccc2S(=O)(=O)N([C@@H](C)CO)C[C@@H]1C
 : 4 | -4 | 24 | 1 | 8[16.7 µM] | 16
> C=C1C(=O)c2sccc2C(c2ccc(OC)c(OC)c2)C1COC(C)=O (configuration not stated)
 : -4 | 77* | / | / | / | 106*
> CCN1CCN(CC(=O)N2N=C(c3cccs3)CC2c2ccc(OC)c(OC)c2)C(=O)C1=O (configuration not stated)
 : 2 | 7 | -1 | 7 | -2 | -8
> O=C1c2ccc3c4c(ccc(c24)C(=O)N1CCCCO)C(=O)N(CCCCO)C3=O
 : 18* | ? | / | / | / | 3
> O=C(c1ccc2c(c1)C(=O)N(CCCO)C2=O)c1ccc2c(c1)C(=O)N(CCCO)C2=O
 : / | / | -9 | 0 | 4 | -15
> CN(C)c1ccc(/C=N/N=C/c2ccccc2O)cc1
 : / | / | / | / | -3 | 56*

# Retrieved by structure from the entries so far:
# Sequence of screens: CFTR F508del cor | EWS-Fli inh | Yeast UUG start | PglD inh | miR122 inh | LGR2 inh
> CC(=O)NCCc1ccc(C(=O)Cn2cnc3ccccc3c2=O)cc1
 : -2 | -41 | -14 | 2 | -2 | -7
> COc1ccc(-c2ccnc(-c3ccc(O)cc3)n2)cc1
 : 11* | 29 | / | / | / | -25
> CCN1CCN(CC(=O)N2N=C(c3cccs3)CC2c2ccc(OC)c(OC)c2)C(=O)C1=O (configuration not stated)
 : 2 | 7 | -1 | 7 | -2 | -8

# Next section:
# Sequence of screens: CFTR F508del cor | EWS-Fli inh | Yeast UUG start | PglD inh | miR122 inh | LGR2 inh
> O=[N+]([O-])CC(c1ccc(F)cc1)c1c[nH]c2ccccc12 (configuration not stated)
 : 3 | 55* | 10 | 3 | 80 | 22
> NCC(c1ccccc1)c1c[nH]c2ccccc12 (configuration not stated)
 : 2 | -10 | -7 | -2 | 4 | 20
> CCN1C(=O)C(=Cc2cccc(OC)c2Oc2ccc([N+](=O)[O-])cc2[N+](=O)[O-])SC1=S
 : -1 | 58* | -10 | -4 | -1 | 8
> CN(C)c1ccc(NC(=O)c2cnsn2)cc1
 : -1 | 22 | -61 | 3 | -5 | 71*
> O=C1C(c2ccccc2)=NCCN1C(c1ccc(F)cc1)c1nc2ccccc2[nH]1 (configuration not stated)
 : -3 | -10 | -11 | 5 | 8 | -11
> C=CCN=C1NN=C(c2ccc3c(c2)OCCO3)CS1
 : -2 | 58* | -65 | 4 | 154* | ?
> C=CCN=C1NN=C(c2cc(C)n(CC=C)c2C)CS1
 : 0 | 80* | / | / | / | 12
> c1ccc(C2=NNC(=NCc3ccc4c(c3)OCO4)SC2)cc1
 : / | / | -19 | -2 | 0 | 4
> C[C@H](CO)N1C[C@H](C)[C@@H](CN(C)S(=O)(=O)c2ccc(Cl)cc2)OCCCC[C@H](C)Oc2ccc(NC(=O)Nc3ccc(C(F)(F)F)cc3)cc2C1=O
 : 5 | 9 | -14 | -3 | -4[16.7 µM] | 16
> Cn1cccc1C(=O)OCC(=O)NCc1ccc2c(c1)OCO2
 : 37* | -14 | -1 | -2 | 0 | 7

# Whole records, quoted from the list.
# CN(C)c1ccc(NC(=O)c2cnsn2)cc1 is listed as CFTR F508del cor = -1; EWS-Fli inh = 22; Yeast UUG start = -61; PglD inh = 3; miR122 inh = -5; LGR2 inh = 71*
# Cn1cccc1C(=O)OCC(=O)NCc1ccc2c(c1)OCO2 is listed as CFTR F508del cor = 37*; EWS-Fli inh = -14; Yeast UUG start = -1; PglD inh = -2; miR122 inh = 0; LGR2 inh = 7

# Other structures.
# Sequence of screens: CFTR F508del cor | EWS-Fli inh | Yeast UUG start | PglD inh | miR122 inh | LGR2 inh
> CC(C)Cc1nc2sc3c(=O)[nH]cnc3c2c2c1CCC2
 : / | / | -9 | 2 | 126* | 12
> CCCc1nc2sc3c(=O)[nH]cnc3c2c2c1CCCC2
 : 0 | -5 | / | / | / | 0
> CCCNC(=O)COC(=O)c1ccccc1C(=O)c1ccc(Cl)c([N+](=O)[O-])c1
 : -3 | 55* | / | / | -13 | 106*
> O=C(CN1C(=O)c2ccccc2S1(=O)=O)Nc1ncc(Cl)cc1Cl
 : -1 | 58* | -13 | 2 | 0 | 69*
> O=C(CN1C(=O)c2ccccc2S1(=O)=O)c1ccccc1Cl
 : 0 | 82* | -11 | -2 | 3 | 96*
> O=C(CSc1nc2ccccc2n1-c1ccccc1)Nc1ncc(Cl)cc1Cl
 : 8.7* | -13 | -14 | -2 | 0 | 34
> O=C(CN1C(=O)c2ccccc2S1(=O)=O)Nc1ncccn1
 : 1 | 0 | 7 | -4 | -2 | 5
> Cc1c(Cl)cccc1NC(=O)NCc1ccncc1
 : 0 | -3 | -6 | 4 | 10 | /
> Cc1cc(O)c2c(-c3ccccc3)cc(=O)oc2c1
 : / | / | -6 | -8 | 4 | /
> Cc1cc2oc(=O)cc(-c3ccccc3)c2c(C)c1-c1ccc(O)cc1
 : 9.2* | 14 | -15 | 6 | -8 | -43
> Cc1ccc2[nH]c(CNC(=O)C3CCCCC3)cc2c1
 : 2 | 9 | -8 | -3 | 135* | -16
> O=C(NC(=S)NC1CCSC1=O)c1cccc([N+](=O)[O-])c1 (configuration not stated)
 : 0 | / | -33 | -3 | 4 | -10
> C/C(=N/NS(=O)(=O)c1ccc(F)cc1)c1ccc(NC(=O)c2ccc(C)o2)cc1
 : / | / | 8 | 5 | 132* | 3
> COC(=O)Cc1c(O)ccn(Cc2ccc(Cl)c(Cl)c2)c1=O
 : 14* | -12 | / | / | / | 5
> COC(=O)C(CC(C)C)NC(=O)c1cc(OC)c(OC)c(OC)c1 (configuration not stated)
 : / | / | -10 | 0 | -9 | /
> O=C(CSC(=S)N1CCCCC1)Nc1ncc2c(n1)CCCC2=O
 : -33 | -7 | / | / | / | /
> CCN(CC)C(=O)c1oc2ccc(S(=O)(=O)N3CC(C)CC(C)C3)cc2c1C (configuration not stated)
 : 9.2* | 49 | -4 | 1 | -5 | 24
